Molecules are shown by their SMILES.

Assay [1] has as its target T1, Human recombinant fibroblast collagenase (Homo sapiens, UniProt P03956).
T1 sequence (P03956 100-469): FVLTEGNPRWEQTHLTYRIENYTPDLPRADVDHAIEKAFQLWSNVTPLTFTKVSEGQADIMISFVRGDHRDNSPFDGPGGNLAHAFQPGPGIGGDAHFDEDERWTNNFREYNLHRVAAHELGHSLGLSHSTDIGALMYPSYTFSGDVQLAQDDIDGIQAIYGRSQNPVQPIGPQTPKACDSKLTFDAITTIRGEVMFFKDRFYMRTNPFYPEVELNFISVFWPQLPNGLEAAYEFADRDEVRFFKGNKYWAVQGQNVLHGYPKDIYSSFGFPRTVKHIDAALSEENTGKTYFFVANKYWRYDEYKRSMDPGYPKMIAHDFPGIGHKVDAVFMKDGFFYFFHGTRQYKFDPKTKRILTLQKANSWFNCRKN
The experiment in a line: collagenase activity, digestion of bovine type I collagen. It is filed as biochemical. Particulars: 2 hours at 35° C., read-out: Ki for inhibition of collagenase.

The target in assay [2] is truncated recombinant mouse macrophage metalloelastase. Particulars: read-out: IC50 for inhibition of degradation of [^3 H] elastin; pH 8.0, 37° C. overnight.

With `COc1ccc(S(=O)(=O)N(Cc2cccnc2)[C@@H](C(=O)NO)C(C)C)cc1.Cl` [N-hydroxy-2(R)-[[4-methoxybenzenesulfonyl](3-picolyl)amino]-3-methylbutanamide hydrochloride], the Ki – broadly, the equilibrium dissociation constant of an inhibitor or competing ligand from its target – in assay [1] worked out at 0.062 µM. In addition, the IC50 – broadly, the concentration needed to halve the response being measured – in assay [2] was about 0.008 µM.

Source of the values: patent US5552419A, “Arylsulfonamido-substituted hydroxamic acids” (Ciba-Geigy Corporation, priority 1993, dated 1996).
